Ab-14 light chain CDR variants: yeast mating affinities

Values reported by Engelhart et al. 2022, doi:10.1038/s41597-022-01779-4 (FLAb copy).

Binding partner: SARS-CoV-2 spike HR2 peptide, sequence PDVDLGDISGINAS.

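The starting antibody came from a phage panning campaign against this peptide. Library AAYL50 holds single substitutions and randomly drawn double and triple substitutions in the CDRs. In AlphaSeq, yeast of one mating type display the scFv and yeast of the other type display the target. Binding brings cells together so that they mate, and sequencing counts the barcode pairs among the diploids. The ratio of observed to expected reads was calibrated, replicate by replicate, on BCL2-family standards whose Kd was known from biolayer interferometry. There are three technical replicates.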

Each scFv is VH, the linker GGGGSGGGGSGGGGS, VL, as in the parent Ab-14, and differs from it in the CDRs of the light chain only.
VH: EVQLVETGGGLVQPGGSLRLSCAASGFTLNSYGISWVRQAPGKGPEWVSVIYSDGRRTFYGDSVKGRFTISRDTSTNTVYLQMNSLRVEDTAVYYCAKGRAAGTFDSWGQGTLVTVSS
VL: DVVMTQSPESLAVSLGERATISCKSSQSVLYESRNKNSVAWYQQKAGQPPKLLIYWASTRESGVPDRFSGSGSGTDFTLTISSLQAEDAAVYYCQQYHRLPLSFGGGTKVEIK

The parent's light chain CDRs are KSSQSVLYESRNKNSVA, WASTRES, QQYHRLPLS; each variant's own CDRs replace them letter for letter.
All variants listed here change K36 of the VL, counted from its first residue.
Each Kd is an estimate from the mating assay, the geometric mean of the replicates in which the pair was seen; lower is stronger.
"no signal" marks a missing value. The strain was present, yet no cells mated with the target were sequenced in any replicate, which points to weak or no binding.
Background: pairings of library AAYL50 with three empty control strains gave a value in 18% of cases (median 15 µM, 5th percentile 970 nM). Values in that range, when seen in few replicates, are hard to tell from nonspecific mating.

CDR-L1,CDR-L2,CDR-L3,apparent Kd,detected
KSSQSVLYESRNGASVA,WASTRES,QQYSRLPLS,6.7 nM,3 of 3
KSSQSVLYESRYNNSVA,WASTRES,QQYHRLPLH,no signal,0 of 3
KSSQSVLYESRNEMSVA,WASTRWS,QQYHRLPLS,78 nM,3 of 3
KSSQSVLYESRNNNSVE,WASTRES,QQYHRLPLS,9.7 µM,3 of 3
KSSQSVLYESRNHMSKA,WASTRES,QQYHRLPLS,no signal,0 of 3
KSSHSVLYESRNQNSVA,WASTRES,QLYHRLPLS,1.6 µM,2 of 3
KSSQSVLYGSRNCNSVW,WASTRES,QQYHRLPLS,no signal,0 of 3
KSSQSVLYESRRENSVA,WASSRES,QQYHRLPLS,49 nM,3 of 3
KWSQSVLYESRNDNDVA,WASTRES,QQYHRLPLS,440 nM,1 of 3
KSSQSVLYESRNCNSVA,WASERES,RQYHRLPLS,1.4 mM,1 of 3
KSSQSVLYESRNSGPVA,WASTRES,QQYHRLPLS,5.7 nM,3 of 3
KASQSVLCESRNPNSVA,WASTRES,QQYHRLPLS,1.7 µM,3 of 3
KSSQSVLYEPRNYNSVA,WASTRES,QQYHRLPLS,39 nM,3 of 3
KSSQSVLYESRNQNSVW,WASTRDS,QQYHRLPLS,no signal,0 of 3
KSQQSVLYESRNVNSVA,WASTRDS,QQYHRLPLS,11 nM,3 of 3
KSSQSVLNESRNPNGVA,WASTRES,QQYHRLPLS,23 nM,3 of 3
KSSQSVLYESRNMNSVA,WASTRES,QQYHRLPLS,3.7 nM,3 of 3
KSIQSVLYESRNYNSVA,WASTRES,QQYHRLPLS,190 nM,2 of 3
KSVQSVLYESRNHNSVA,WASTRES,QQPHRLPLS,700 nM,3 of 3
KSSQSVLYESRNWNSVA,WASTRES,QAYHRLPYS,800 nM,3 of 3
KSSQSVLYESRNFNSVA,WASTRES,QQCHRLPRS,no signal,0 of 3
KSSQSVWYESRNQNSVA,YASTRES,QQYHRLPLS,8.3 nM,3 of 3
YSSQSVLYESRNSNSVA,WASQRES,QQYHRLPLS,190 nM,3 of 3
KSSQSVLYESRNGNSVN,WRSTRES,QQYHRLPLS,no signal,0 of 3
KSSQSVLYESRNTNSQA,WASTRES,QQFHRLPLS,230 µM,2 of 3
KSSQSVLYESRNNNEVA,WASTRES,QQYHRLPDS,no signal,0 of 3
KSSQSVLYESRNFNSVA,WASTKES,QQYHRLPLS,570 nM,3 of 3
KSSQSVLYESRNVQSVA,TASTRES,QQYHRLPLS,no signal,0 of 3
KSSQSVLYEIRNSQSVA,WASTRES,QQYHRLPLS,790 nM,3 of 3
KSSQSVLYESRNPNSVA,WASTRES,QQYHRSPLE,72 nM,3 of 3
KSSQSVWYESRQGNSVA,WASTRES,QQYHRLPLS,7.7 nM,3 of 3
KSSQSVLYESYNHNLVA,WASTRES,QQYHRLPLS,26 µM,1 of 3
KSSQSFLYESRNDNVVA,WASTRES,QQYHRLPLS,no signal,0 of 3
KSSQSVLYEYRNHNSVA,WASTRES,QQYCRLPLS,600 nM,3 of 3
KSSQSVLYESRNGNSVA,WASTRIS,QQYHRLPHS,250 µM,1 of 3
KISQSVLYESRNVNSVA,WASTRES,QQVHRLPLS,1.3 nM,3 of 3
KSSQSVLYESRNANSMY,WASTRES,QQYHRLPLS,no signal,0 of 3
KSSQSVLYESRNDNSVA,WASTWES,WQYHRLPLS,3.0 µM,2 of 3
QSSQSVLYESRRPNSVA,WASTRES,QQYHRLPLS,250 nM,3 of 3
KSSQSVLYESRNDNSVA,WASTRES,WQYHRLCLS,690 nM,1 of 3
KSSQSVLYESRNTFSVA,WASTREF,QQYHRLPLS,2.9 µM,3 of 3
KSSQSVLYESSNPKSVA,WASTRES,QQYHRLPLS,9.3 µM,1 of 3
KSSQGVLYESRNDNSVA,WASTRES,QQVHRLPLS,100 nM,3 of 3
KSSQSVLYESRNFNSYA,WASTRES,RQYHRLPLS,no signal,0 of 3
KSSGSVLYESRNMNSVA,WASTRES,QQYHRLPLS,4.3 nM,3 of 3
KSSQSVLYESRNHNSVA,WASTIER,QQYHRLPLS,1.3 µM,1 of 3
KSSQSALYESRNVNSVA,WASTRES,QCYHRLPLS,2.3 nM,3 of 3
KSSQSVLYENRNPNSVA,WASTRES,QQEHRLPLS,no signal,0 of 3
KSSQSVLYESRNQNHVA,WASTRES,QQTHRLPLS,no signal,0 of 3
KSSQSVLYESRNANSVA,WASTRGS,QQPHRLPLS,980 nM,3 of 3
KFSQSVLYESRNFNSVA,WASTRES,QQYHRLPLS,4.2 nM,3 of 3
KSSQSVLRESRNWNSVA,WASTRES,QQYHRLGLS,2.6 µM,1 of 3
TSSQSVLYESRNCNSVA,WASTREE,QQYHRLPLS,21 nM,3 of 3
NKSQSVLYESRNCNSVA,WASTRES,QQYHRLPLS,no signal,0 of 3
KWSQSVLYESRNDNSVA,WASTRES,QQYHRLPLS,500 nM,1 of 3
KSSESVLYESRNHNSVA,WASTRES,QQYHRLPLS,4.8 nM,3 of 3
KSSQSVLYESCNFNSVA,WASTRES,QQYHREPLS,no signal,0 of 3
KSSQSVLYESRNDASVA,WASTRES,QQYHRLPLS,8.2 nM,3 of 3
KSSQSVLYESLNYNSVA,WASTRER,QQYHRLPLS,190 nM,3 of 3
KSSQFVLYDSRNANSVA,WASTRES,QQYHRLPLS,8.0 nM,3 of 3
KSSQSVLYESRNVRSVA,WASTRES,QQLHRLPLS,40 nM,3 of 3
KSSQSVLYESRNGNSVA,WASYRES,QQYHRLPTS,no signal,0 of 3
KSSFQVLYESRNPNSVA,WASTRES,QQYHRLPLS,32 nM,3 of 3
KSSQSLLYESRNTNSVA,WASTRES,QQYHRLCLS,4.2 µM,3 of 3
KSVQSVLYDSRNANSVA,WASTRES,QQYHRLPLS,35 nM,3 of 3
KSIQSVLYESRNENSVA,WASTKES,QQYHRLPLS,390 nM,3 of 3
KSSQSVLYESRNSNSVA,WASTRER,QQYHRLPLR,4.7 nM,3 of 3
KGSQSVLYEARNENSVA,WASTRES,QQYHRLPLS,11 nM,3 of 3
KSSQSVLYEGRNGNSVA,WASTRES,QQYHRLPLL,2.5 nM,3 of 3
KSSQSLLYESRNTNSVA,WASTRES,QQPHRLPLS,no signal,0 of 3
KSSHSVLYESRNMNSIA,WASTRES,QQYHRLPLS,5.5 nM,3 of 3
VSSQSVLYESRNQNSVA,WASTRES,QQYHRLPLS,no signal,0 of 3
KSSSSVLYESRNANSVA,WASTKES,QQYHRLPLS,31 nM,3 of 3
KSSQSVLYESRNFNCVA,WASTRES,QQYHYLPLS,3.5 µM,1 of 3
KSPQSVLYESRNHNSVA,WASTRES,QQYHSLPLS,no signal,0 of 3
KSSQSVLYESHNVNSVA,WTSTRES,QQYHRLPLS,8.0 nM,3 of 3
KSSQSVLYESRNVNSVA,WASTRES,QQYFRLPLS,12 nM,3 of 3
ESSQSVLYESRNINSVA,WASTRES,QQYKRLPLS,1.2 µM,1 of 3
KSSQSVLYESRNQNSVA,WASDRPS,QQYHRLPLS,38 nM,3 of 3

Again, the first 5 entries without any signal:

CDR-L1	CDR-L2	CDR-L3	apparent Kd	detected
KSSQSVLYESRYNNSVA	WASTRES	QQYHRLPLH	no signal	0 of 3
KSSQSVLYESRNHMSKA	WASTRES	QQYHRLPLS	no signal	0 of 3
KSSQSVLYGSRNCNSVW	WASTRES	QQYHRLPLS	no signal	0 of 3
KSSQSVLYESRNQNSVW	WASTRDS	QQYHRLPLS	no signal	0 of 3
KSSQSVLYESRNFNSVA	WASTRES	QQCHRLPRS	no signal	0 of 3